According to US20160158161A1:
Some compounds may have been tested in ways that are not shown here.

Tests used:
[1] = oral; cited from earlier work
[2] = migration of fentanyl into the carrier film on storage
[3] = stability of fentanyl in acrylate copolymer adhesives / stress storage; conditions: stress storage one month at 40° C./75% relative humidity; crosslinking agent added in presence of fentanyl

## CCC(=O)N(c1ccccc1)C1CCN(CCc2ccccc2)CC1
[1]
  bioavailability: < 10%
[2]; PE film, less than one month at 40° C./75% relative humidity
  active substance migrated into the carrier film: 8-10%
[2]; PET (polyester) film
  migration of active substance into the carrier film: No migration was observed
[3]
  amount of impurity D (European Pharmacopeia) formed, based on fentanyl: about 1%
